“And” between values parts separate entries of the source, which are not always exact repeats. Equal values may be shown once. The entries are a selection whose mix differs from that of the whole data set. Records with an inconclusive call do not appear. The source holds several records for some structures; these can differ, active in one and inactive in another. The source made the active and inactive calls. Calls follow the shape of the dose curve; as a rule, active = well fitted inhibition curve with a large enough effect; inconclusive = small, poorly fitted or top-dose-only effect; inactive = flat fitted curve, though single readings scatter.
Experiment: qHTS for Inhibitors of human tyrosyl-DNA phosphodiesterase 1 (TDP1): qHTS in cells in absence of CPT; also: nearly all actives have a fitted effect of over 55% in size
Conditions: DT40 Tdp1-/- hTDP1 cells, no CPT, ATP luminescence, 48 h; series mostly up to 46.2 µM; activity change, negative = growth inhibition: at the top concentration
% is scaled to controls: 0 for no effect and ±100 for the full control effect; potency is read from the fitted curve at half-maximal effect.

Row | SMILES | activity change, negative = growth inhibition | Potency
1 | O=[N+]([O-])c1ncn(CCn2ncnc2[N+](=O)[O-])n1 | inactive: -5.32% | –
2 | O=P(/N=c1/nc(-c2ccccc2)n(-c2ccccc2)s1)(Nc1ccccc1)Nc1ccccc1 | – | active: 11.2 µM
3 | O=C(Nc1cc([As](=O)(O)O)ccc1O)c1ccccc1 | inactive: -1.97% | –
4 | Cc1cc(C=O)ccc1N(CCCl)CCCl | inactive: -29.3% | –
5 | O=P1(N(CCCl)CCCl)OCCCS1 (stereo unspecified) | inactive: -10.5% | –
6 | O=[N+]([O-])c1ccc(Nc2ccc(Oc3ccc([N+](=O)[O-])cc3[N+](=O)[O-])cc2)c([N+](=O)[O-])c1 | – | active: 4.61 µM
7 | Cc1cc(SC(NC=O)C(Cl)(Cl)Cl)ncn1 (stereo unspecified) | – | active: 18.4 µM
8 | CCOC(=O)Nc1cccc([As](=O)(O)O)c1 | inactive: -5.25% | –
9 | COP(=O)(OC)N1CC1c1ccccc1 (stereo unspecified) | inactive: -4.05% | –
10 | CC1CCNP(=O)(N(CCCl)CCCl)O1 (stereo unspecified) | inactive: 1.72% | –
11 | CCOC(=O)Nc1ccc([As](=O)(O)O)c(O)c1 | inactive: 16.5% | –
12 | O=C(O)C(O)c1ccc(N(CCCl)CCCl)cc1 (stereo unspecified) | – | active: 4.11 µM
13 | CCC(C)N(CC(C)C)C(=S)SC(NC(C)=O)C(Cl)(Cl)Cl (stereo unspecified) | – | active: 0.651 µM
14 | CSc1ccc(Nc2c([N+](=O)[O-])cc([N+](=O)[O-])cc2[N+](=O)[O-])cc1 | – | active: 3.26 µM
15 | O=C(OC1CN2CCC1CC2)c1cccc([N+](=O)[O-])c1 (stereo unspecified) | inactive: -1.17% | –
16 | O=C(Nc1ccncc1[N+](=O)[O-])c1ccc([N+](=O)[O-])cc1[N+](=O)[O-] | – | active: 13 µM
17 | O=C(COc1ccccc1)OC1CN2CCC1CC2 (stereo unspecified) | inactive: -2.93% | –
18 | O=C(O)C(=O)c1ccc(N(CCCl)CCCl)cc1 | – | active: 9.2 µM
19 | COC(=O)C1(C)COP(=O)(N2CCCC2)OC1 (stereo unspecified) | inactive: 16.4% | –
20 | COP1(=S)c2c(C)nn(CCC#N)c2N=C(c2ccc(F)cc2)N1C (stereo unspecified) | inactive: -19.2% | –
21 | COc1ccc(N/C(=N/P(=O)(N2CCOCC2)N2CCOCC2)N2CCOCC2)cc1 | inactive: 15.2% | –
22 | COc1cc(I)ccc1[As](=O)(O)O | inactive: -28.7% | –
23 | O=P1(N(CCCl)CCCl)OCCCN1CCCl (stereo unspecified) | inactive: 0.416% | –
24 | Cc1cc(=O)[nH]c(N[N+](=O)[O-])n1 | inactive: -16.5% | –
25 | O=[N+]([O-])c1cc([N+](=O)[O-])c(-c2ccn[nH]2)s1 | – | active: 9.2 µM
26 | CC(C)NC(=O)NP(=O)(Oc1ccccc1)Oc1ccccc1 | inactive: -2.3% | –

Row | SMILES | activity change, negative = growth inhibition | Potency
27 | O=C(OC1CN2CCC1CC2)c1cccc2[nH]cnc12 (stereo unspecified) | inactive: 1.73% | –
28 | CCN(CC)C(=S)SC(NC=O)C(Cl)(Cl)Cl (stereo unspecified) | – | active: 3.26 µM
29 | COC(=O)C1(C)COP(=O)(N2CCCCCC2)OC1 (stereo unspecified) | inactive: 0.0874% | –
30 | ClCCSc1nnc(-c2cccnc2)o1 | inactive: -6.4% | –
31 | O=Cc1ccc(NCCCl)cc1 | – | active: 7.94 µM
32 | ClCCN(CCCl)c1ccc(CC2C=CC=C2)cc1 | – | active: 2 µM
33 | [N-]=[N+]=NC1CCCCC1NC(=O)c1cc([N+](=O)[O-])cc([N+](=O)[O-])c1 (stereo unspecified) | – | active: 7.31 µM
34 | Cc1ccc(OP(=O)(Nc2ccc([N+](=O)[O-])cn2)Oc2ccc(C)cc2)cc1 | inactive: -19.1% | –
35 | O=[N+]([O-])c1ccc(-c2cc([N+](=O)[O-])c(O)c([N+](=O)[O-])c2)cc1 | inactive: -4.57% | –
36 | COc1cc(C(=O)NCC2(N3CCOCC3)CCCCC2)ccc1OCC(C)C | – | active: 4.11 µM
37 | O=[As](O)(c1ccc(O)cc1)c1ccccc1O | inactive: 1.36% | –
38 | C[As](=O)(O)c1cccc(C(=O)O)c1 | inactive: -37.6% | –
39 | CN(C(=O)Cc1ccc(Cl)c(Cl)c1)[C@H]1CC[C@@]2(CCCO2)C[C@@H]1N1CCCC1 | – | inactive
40 | O=[N+]([O-])c1ccc2c(c1)nnn2O | inactive: -14.9% | –
41 | CN(C)C(=O)c1cc([N+](=O)[O-])cc2c1-c1c(cc([N+](=O)[O-])cc1[N+](=O)[O-])C2=O | – | active: 1.84 µM
42 | CN(C(=O)Cc1ccccc1)[C@@H]1CC[C@]2(CCCO2)C[C@H]1N1CCCC1 | inactive: 0.544% | –
43 | CCOP1(=S)c2c(C)nn(CCC#N)c2N=C(c2ccc(F)cc2)N1C (stereo unspecified) | inactive: -27.8% | –
44 | Nc1ccccc1[As](=O)(O)c1ccccc1 | inactive: -11.1% | –
45 | O=C(O)COc1ccc([As](=O)(O)O)cc1[N+](=O)[O-] | inactive: -9.55% | –
46 | O=P(Nc1nccs1)(Oc1ccccc1)Oc1ccccc1 | inactive: -7.38% | –
47 | COc1cc(C2NCCC3(OCCO3)C2(C)C)cc(OC)c1OC (stereo unspecified) | inactive: -13.5% | –
48 | CCCOP(=S)(Nc1nc(N)cc(=O)[nH]1)OCCC | inactive: 5.1% | –
49 | Nc1cccc2c([As](=O)(O)O)cccc12 | inactive: -5.05% | –
50 | Cc1ccc(NCCc2c([N+](=O)[O-])cc([N+](=O)[O-])cc2[N+](=O)[O-])cc1 | – | active: 18.4 µM
51 | Cc1cccc(OCC(=O)OC2CN3CCC2CC3)c1 (stereo unspecified) | inactive: 10.3% | –
52 | O=[As](O)(c1cccc(O)c1)c1cccc(O)c1 | inactive: 3.54% | –

Row | SMILES | activity change, negative = growth inhibition | Potency
53 | CS(=O)(=O)c1ccc(Cl)c(NC(=O)COC(=O)C(O)(c2ccccc2)c2ccccc2)c1 | inactive: -9.18% | –
54 | O=[As](O)(O)c1cccnc1 | inactive: 3.47% | –
55 | COc1cc(C(=O)NCC2(N3CCOCC3)CCCCC2)cc(Cl)c1OC(C)C | – | active: 13 µM
56 | O=C(OC1CN2CCC1CC2)c1ccc(Cl)cc1 (stereo unspecified) | inactive: -2.76% | –
57 | CC1(CBr)Cn2c(nc3ccccc3c2=O)S1 (stereo unspecified) | – | active: 18.4 µM
58 | CC(C)/C=N\N=C(\N)N[N+](=O)[O-] | inactive: -2.45% | –
59 | COc1ccccc1CNC(=O)COC(=O)C(O)(c1ccccc1)c1ccccc1 | inactive: -6.86% | –
60 | O=P1(N(CCCl)CCCl)NCCC(C(F)(F)F)O1 (stereo unspecified) | inactive: -0.929% | –
61 | Clc1n[nH]nc1-c1nn[nH][15n]1 | inactive: -6.77% | –
62 | CCOP(=O)(Nc1ccc(C)cn1)OCC | inactive: -13% | –
63 | CN(CCCl)Cc1cc(Cl)c(NC2=NCCN2)c(Cl)c1 | – | inactive and active: 5.17 µM
64 | O=P1(Nc2ccccn2)COc2ccccc2OC1 | inactive: -9.08% | –
65 | CCC1=CC2Cc3nc4ccc(Cl)cc4c(N)c3C(C1)C2 (stereo unspecified) | – | active: 9.2 µM
66 | O=[As](O)(c1cccs1)c1cccs1 | inactive: 9.64% | –
67 | Cc1ccc(OCC(=O)OC2CN3CCC2CC3)cc1 (stereo unspecified) | inactive: -1.14% | –
68 | NS(=O)(=O)c1cccc(NC(=O)COC(=O)C(O)(c2ccccc2)c2ccccc2)c1 | – | active: 4.11 µM
69 | Nc1cccc([As](=O)(O)c2ccccc2)c1 | inactive: 3.23% | –
70 | O=P1(Nc2ncccn2)COc2ccccc2OC1 | inactive: 0.138% | –
71 | CCCC1OP(=O)(Nc2ccccc2)OCC1CC (stereo unspecified) | inactive: 1.35% | –
72 | CN(C)C1(CNC(=O)c2ccc(S(C)(=O)=O)cc2)CCCCC1 | inactive: -9.46% | –
73 | CC1CCC(C(C)C)C(OP(=O)(Nc2ccccn2)c2ccccc2)C1 (stereo unspecified) | – | active: 18.4 µM
74 | Cc1ccc(C(=O)OC2CN3CCC2CC3)cc1 (stereo unspecified) | inactive: -7.63% | –
75 | COc1cc([N+](=O)[O-])ccc1[N+](=O)[O-] | – | active: 6.31 µM
76 | Cc1nn(-c2ccccc2)c2c1P(=O)(N1CCOCC1)N(C)C(c1ccccc1)=N2 (stereo unspecified) | inactive: 12.4% | –
